The molecules below were run on Cholecystokinin receptor type B (Cavia porcellus) (assay: Percent inhibition of specific [125I]Bolton-Hunter CCK-8 binding in guinea pig cortex at 10e-5 M). Details: 10e-6 M.

Compound | inhibition [%]
Cc1ccccc1NC(=O)NCCCC[C@H](NC(=O)C(Cc1c[nH]c2ccccc12)NC(=O)OC(C)(C)C)C(=O)NCCCCC(=O)NC(Cc1ccccc1)C(N)=O (stereo not given in full) | 10
Cc1ccccc1NC(=O)NCCCC[C@H](NC(=O)C(Cc1c[nH]c2ccccc12)NC(=O)OC(C)(C)C)C(=O)NCCC(=O)NC(Cc1ccccc1)C(N)=O (stereo not given in full) | 6
Cc1ccccc1NC(=O)NCCCC[C@H](NC(=O)C(Cc1c[nH]c2ccccc12)NC(=O)OC(C)(C)C)C(=O)NCCCCCC(=O)N(C)C(Cc1ccccc1)C(N)=O (stereo not given in full) | 10
Cc1ccccc1NC(=O)NCCCC[C@H](NC(=O)C(Cc1c[nH]c2ccccc12)NC(=O)OC(C)(C)C)C(=O)N(C)CCC(=O)N(C)C(Cc1ccccc1)C(N)=O (stereo not given in full) | 10
Cc1ccccc1NC(=O)NCCCC[C@H](NC(=O)C(Cc1c[nH]c2ccccc12)NC(=O)OC(C)(C)C)C(=O)N(C)CC(=O)N(C)C(Cc1ccccc1)C(N)=O (stereo not given in full) | 0
